## Cyclic peptide permeability, from CycPeptMPDB

Collected by the curators of CycPeptMPDB (Li et al. 2023) from Townsend et al. 2020, doi:10.26434/chemrxiv.13335941.v1.

PAMPA measures passive passage through an artificial lipid membrane.
Permeability is given as log10 of P in cm/s; higher (less negative) is more permeable.

| compound | PAMPA (log10 cm/s) |
|---|---|
| CC(C)C[C@@H]1C(=O)N[C@@H](Cc2ccccc2)C(=O)N2CCC[C@H]2C(=O)N[C@H](C)C(=O)N(C)[C@@H](CC(C)C)C(=O)N[C@H](CC(C)C)C(=O)N2CCC[C@H]2C(=O)N1C | -5.68 |
| CC(C)C[C@@H]1C(=O)N[C@@H](Cc2ccccc2)C(=O)N[C@@H](Cc2ccccc2)CC(=O)N[C@H](CC(C)C)C(=O)N(C)[C@@H](CC(C)C)C(=O)N2CCC[C@H]2C(=O)N1C | -5.33 |
| CC(C)C[C@@H]1NC(=O)[C@@H]2CCCN2C(=O)[C@@H](CC(C)C)NC(=O)[C@@H](CC(C)C)N(C)C(=O)C[C@H](Cc2ccccc2)NC(=O)[C@@H]2CCCN2C(=O)[C@H](Cc2ccccc2)NC1=O | -5.65 |
| CC(C)C[C@@H]1C(=O)N(C)[C@H](CC(C)C)C(=O)N2CCC[C@H]2C(=O)N(C)[C@H](CC(C)C)C(=O)N[C@@H](Cc2ccccc2)C(=O)N2CCC[C@@H]2C(=O)N(C)[C@H](C)C(=O)N1C | -6.21 |
| CC(C)C[C@@H]1NC(=O)[C@H](C)NC(=O)[C@H]2CCCN2C(=O)[C@H](Cc2ccccc2)NC(=O)[C@@H](CC(C)C)N(C)C(=O)[C@@H]2CCCN2C(=O)[C@@H](CC(C)C)N(C)C1=O | -6.10 |
| CCCN1CC(=O)N(C)[C@H](CC(C)C)C(=O)N(C)[C@H](CC(C)C)C(=O)N2CCC[C@H]2C(=O)N(C)[C@H](CC(C)C)C(=O)N[C@@H](Cc2ccccc2)C(=O)N2CCC[C@@H]2C1=O | -5.11 |
| CC(C)C[C@@H]1C(=O)N[C@H](CC(C)C)C(=O)N2CCC[C@H]2C(=O)N(C)[C@@H](CC(C)C)C(=O)N[C@@H](Cc2ccccc2)C(=O)N2CCC[C@@H]2C(=O)N(C)[C@@H](C)C(=O)N1C | -5.27 |
| CC(C)C[C@@H]1NC(=O)[C@H]2CCCN2C(=O)[C@H](CC(C)C)NC(=O)[C@@H](CC(C)C)NC(=O)[C@H](C)N(C)C(=O)[C@H](Cc2ccccc2)NC1=O | -6.01 |
| CC(C)C[C@@H]1C(=O)N[C@@H](Cc2ccccc2)C(=O)N(C)[C@@H](C)C(=O)N[C@H](CC(C)C)C(=O)N[C@@H](Cc2ccccc2)CC(=O)N2CCC[C@H]2C(=O)N1C | -5.86 |
| CCCN1CC(=O)N(C)[C@@H](CC(C)C)C(=O)N(C)[C@@H](CC(C)C)C(=O)N2CCC[C@H]2C(=O)N(Cc2ccccc2)CC(=O)N[C@@H](Cc2ccccc2)C(=O)N2CCC[C@H]2C1=O | -5.39 |
| CC(C)C[C@@H]1C(=O)N[C@@H](Cc2ccccc2)C(=O)N[C@H](C)C(=O)N(C)[C@@H](CC(C)C)C(=O)N(C)[C@@H](CC(C)C)C(=O)N2CCC[C@@H]2C(=O)N1C | -5.01 |
| CC(C)C[C@@H]1C(=O)N(C)[C@H](CC(C)C)C(=O)N2CCC[C@H]2C(=O)N[C@H](CC(C)C)C(=O)N[C@@H](Cc2ccccc2)C(=O)N[C@@H](C)C(=O)N1C | -5.51 |
| CCCN1CC(=O)N[C@@H](CC(C)C)C(=O)N(C)[C@H](CC(C)C)C(=O)N2CCC[C@@H]2C(=O)N[C@@H](CC(C)C)C(=O)N[C@@H](Cc2ccccc2)C(=O)N2CCC[C@H]2C1=O | -5.61 |
| CC(C)C[C@H]1C(=O)N[C@@H](Cc2ccccc2)CC(=O)N2CCC[C@H]2C(=O)N(C)[C@@H](CC(C)C)C(=O)N[C@@H](Cc2ccccc2)C(=O)N2CCC[C@@H]2C(=O)N(C)[C@@H](C)C(=O)N1C | -5.12 |

A selection of 2 entries from above:

| compound | PAMPA (log10 cm/s) |
|---|---|
| CC(C)C[C@@H]1C(=O)N[C@@H](Cc2ccccc2)C(=O)N[C@H](C)C(=O)N(C)[C@@H](CC(C)C)C(=O)N(C)[C@@H](CC(C)C)C(=O)N2CCC[C@@H]2C(=O)N1C | -5.01 |
| CCCN1CC(=O)N[C@@H](CC(C)C)C(=O)N(C)[C@H](CC(C)C)C(=O)N2CCC[C@@H]2C(=O)N[C@@H](CC(C)C)C(=O)N[C@@H](Cc2ccccc2)C(=O)N2CCC[C@H]2C1=O | -5.61 |

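Lipid, pH, incubation time, direction and concentration are not recorded in the data file. The list need not hold all peptides of the study. Entries at the database's floor value (log10 P of -10) are not listed.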